Earlier results, collected in US20240327311A1, “Benzothiazole Derivative as a Urease Inhibitor for Fertilizer Application” (Sabic Agri-Nutrients Company, priority 2021, published 2024).

Chains of the proteins cited; added tags and fusions are not shown.
UniProt P07374, whole entry, looked up: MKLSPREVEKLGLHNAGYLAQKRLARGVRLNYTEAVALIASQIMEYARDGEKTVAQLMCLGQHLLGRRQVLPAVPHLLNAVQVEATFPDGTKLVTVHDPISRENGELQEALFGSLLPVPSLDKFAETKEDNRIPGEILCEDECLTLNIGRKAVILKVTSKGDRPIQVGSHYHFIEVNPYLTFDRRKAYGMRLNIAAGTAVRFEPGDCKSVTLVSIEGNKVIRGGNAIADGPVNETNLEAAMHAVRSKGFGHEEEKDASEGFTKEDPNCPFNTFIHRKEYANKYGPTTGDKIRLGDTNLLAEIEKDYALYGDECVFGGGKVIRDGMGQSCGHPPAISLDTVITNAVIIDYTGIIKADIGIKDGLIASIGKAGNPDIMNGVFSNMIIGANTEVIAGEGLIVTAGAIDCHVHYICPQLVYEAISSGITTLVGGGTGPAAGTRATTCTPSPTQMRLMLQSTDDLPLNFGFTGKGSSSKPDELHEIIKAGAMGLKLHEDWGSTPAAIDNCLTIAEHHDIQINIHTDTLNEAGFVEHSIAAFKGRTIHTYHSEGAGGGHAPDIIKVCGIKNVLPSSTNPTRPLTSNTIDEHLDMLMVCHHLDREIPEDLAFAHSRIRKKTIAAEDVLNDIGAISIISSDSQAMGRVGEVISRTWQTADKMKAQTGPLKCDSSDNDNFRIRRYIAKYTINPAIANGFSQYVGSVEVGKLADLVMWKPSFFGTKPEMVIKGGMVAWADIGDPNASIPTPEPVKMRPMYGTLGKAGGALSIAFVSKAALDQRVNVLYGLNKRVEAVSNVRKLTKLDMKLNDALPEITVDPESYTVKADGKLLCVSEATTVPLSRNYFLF

Molecular target: urease (Canavalia ensiformis, UniProt P07374)
Settings: reported earlier (J. Agric. Food Chem. 2008, 56, 3721); cited from earlier work

Question: With `NP(N)(=O)Nc1nc2ccccc2s1` as the compound, how does the IC50 read?
Answer: 2 nM
